# The entries are a selection whose mix differs from that of the whole data set. Some tests of the compounds listed are not included; inactive here does not mean inactive elsewhere. Active and inactive are the calls of the source. Calls come from the whole dose curve; as a rule, active = well fitted activation curve with a large enough effect; inconclusive = small, poorly fitted or top-dose-only effect; inactive = no such curve, though single readings can be large or run the other way.
# The chains behind the UniProt entries cited, without tags or fusion partners. Where a name states a change or a piece, a line headed by the entry shows the natural chain unless it says otherwise.
# UniProt P43220, whole entry, stated change not applied: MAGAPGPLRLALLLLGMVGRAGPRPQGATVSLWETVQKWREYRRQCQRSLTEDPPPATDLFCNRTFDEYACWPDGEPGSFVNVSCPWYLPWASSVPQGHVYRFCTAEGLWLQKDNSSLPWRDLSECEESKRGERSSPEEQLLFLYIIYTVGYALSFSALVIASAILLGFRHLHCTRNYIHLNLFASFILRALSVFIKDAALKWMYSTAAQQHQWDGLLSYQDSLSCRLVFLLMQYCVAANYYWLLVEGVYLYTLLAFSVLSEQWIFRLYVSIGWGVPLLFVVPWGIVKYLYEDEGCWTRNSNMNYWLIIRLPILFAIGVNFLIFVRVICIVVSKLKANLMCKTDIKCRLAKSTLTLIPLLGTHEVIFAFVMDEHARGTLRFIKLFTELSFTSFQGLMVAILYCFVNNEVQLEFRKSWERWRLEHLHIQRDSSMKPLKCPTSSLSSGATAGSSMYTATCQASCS
# Molecular target: Glucagon-like peptide 1 receptor (Homo sapiens) (UniProt P43220)
# Test: qHTS of GLP-1 Receptor Agonists; note: % of control where 0% means no effect
# Details: HEK293 GLP-1R CRE-luciferase, luminescence, 4-6 h, cells express a hypersensitive GLP-1R form; at 45.6 µM (top of the series)
# From the text: The overall goal of this project was to develop a novel assay for discovering small molecule ligands for class B1 G protein-coupled receptors (GPCRs). Very few agonists (or inverse agonists) with generally weak activity for this entire group of physiologically important receptors are known to date. To establish proof-of-principle that this critical bottleneck can be overcome with a suitable screening approach, our studies focused on the class B1 receptor for glucagon-like peptide-1 (GLP-1R), a potential therapeutic target for diabetes and neurodegenerative disease.
# The assay was developed in a "mix and measure" format using a cell-based functional readout. Toward this goal, stably transfected HEK293 cell clones were established that co-express (i) a cAMP-responsive luciferase reporter gene, and (ii) GLP-1Rs that upon ligand interaction either stimulate (agonists) or inhibit (inverse agonists) luciferase activity. In different cell lines to be used for screening, expressed GLP-1Rs are specifically optimized for high sensitivity detection of either weak agonists (hypersensitive receptor) or inverse agonists (constitutively active receptor mutant). In addition, control cell lines were developed that express either the cAMP-responsive reporter gene without recombinant GLP-1Rs (enabling initial exclusion of GLP-1R independent effects of candidate probes), or the reporter gene together with wild type GLP-1Rs (for confirmation of probe activity at this receptor), or the reporter gene in combination with the constitutively active orphan receptor GPR119 (enabling initial exclusion of GLP-1R independent inhibitory effects of candidate inverse agonists).
# To that end, this assay was optimized for 1536-well format and screened against the MLSMR.
# NIH Molecular Libraries Probe Production Network [MLPCN]
# NIH Chemical Genomics Center [NCGC]
# PI Name: Martin Beinborn, Tufts Medical Center
# In a white solid 1536-well plate, 6 uL of cells are dispensed in DMEM without phenol red, 10% Nu serum, and 1% pen-strep medium. The plates are then incubated for 12 hours at 37 deg C at 5% CO2 before 23 nL of compounds are added. After a 4-6 hr incubation at37 deg C and 5% CO2, 3 uL of detection reagent are added and after a 12 min incubation at RT, a luminescent read is obtained on the ViewLux.
row,SMILES,activation
1,CCN1CCCC(OC(=O)C2(O)c3ccccc3C=Cc3ccccc32)C1 (stereo not drawn),inactive: 0.541%
2,Cc1cc(C(=O)NCC2(N3CCCCC3)CCCCC2)ccc1[N+](=O)[O-],inactive: 7.36%
3,O=C(NCC1(N2CCCCC2)CCCCC1)c1cccc(Br)c1,inactive: 7.61%
4,COc1ccc(C(=O)NCC2(N(C)C)CCCCC2)cc1,inactive: 1.15%
5,CCOc1cccc(C(=O)NCC2(N(C)C)CCCCC2)c1,inactive: 11%
6,C=CCN1CCN(CCOC(=O)C(O)(c2ccccc2)c2ccccc2)CC1,inactive: -0.853%
7,O=C(NCC1(N2CCCCC2)CCCCC1)c1cc(F)c(F)cc1Cl,inactive: -0.188%
8,CN1CCCC(OC(=O)C(O)(c2ccccc2)c2ccccc2)C1 (stereo not drawn),inactive: 16.7%
9,CCCCOc1ccccc1C(=O)NCC1(N(C)C)CCCCC1,inactive: -4.56%
10,Cc1ccccc1C(=O)NCC1(N2CCCCC2)CCCCC1,inactive: 3.88%
11,CN(C)C1(CNC(=O)c2ccccc2[N+](=O)[O-])CCCCC1,inactive: -5.72%
12,CN(C)c1ccc(C(=O)NCC2(N(C)C)CCCCC2)cc1,inactive: 6.67%
13,CN(C)C1CCCC1OC(=O)C(O)(c1ccccc1)c1ccccc1 (stereo not drawn),inactive: -2.94%
14,CN(C)C1(CNC(=O)c2ccccc2F)CCCCC1,inactive: -4.69%
15,Cc1ccc(C(=O)NCC2(N3CCCCC3)CCCCC2)cc1,inactive: 1.25%
16,CC(C)N1C(=O)CC2(CCN(CCOC(=O)C(O)(c3ccccc3)c3ccccc3)CC2)C1=O,inactive: -0.931%
17,CN(C)C1(CNC(=O)c2cccc(Cl)c2)CCCCC1,inactive: -0.883%

row,SMILES,activation
1,CCN(CC)CC(C)C(C)OC(=O)C(O)(c1ccccc1)c1ccccc1 (stereo not drawn),inactive: 6.39%
2,COc1cc(SC)ccc1C(=O)NCC1(N(C)C)CCCCC1,inactive: 13.3%
3,CN1[C@@H]2CC[C@H]1CC(OC(=O)C(O)(c1ccccc1)c1ccccc1)C2 (stereo partly drawn),inactive: -6.06%
4,O=C(NCC1(N2CCCCC2)CCCCC1)c1cc([N+](=O)[O-])ccc1Cl,inactive: 1.36%
5,CN(C)c1cccc(C(=O)NCC2(N(C)C)CCCCC2)c1,inactive: -22.1%
6,CC(C)Oc1ccc(C(=O)NCC2(N(C)C)CCCCC2)cc1,inactive: 7.53%
7,O=C(OCCN1CCCC1)C(O)(c1ccccc1)c1ccccc1,inactive: -3.72%
8,COc1ccc(Br)c(C(=O)NCC2(N3CCCCC3)CCCCC2)c1,inactive: -2.18%
9,C=C(C)C#CC(O)(C(=O)OC1CCN(C)CC1)c1ccccc1 (stereo not drawn),inactive: -1.06%
10,O=C(OC1CN2CCC1CC2)C(CO)(c1ccccc1)c1ccccc1 (stereo not drawn),inactive: -0.34%
11,COc1cccc(C(=O)NCC2(N3CCOCC3)CCCCC2)c1,inactive: -7.35%
12,O=C(NCC1(N2CCCCC2)CCCCC1)c1cccc(Cl)c1,inactive: 1.77%
13,COc1cccc(C(=O)NCC2(N3CCCCC3)CCCCC2)c1,inactive: 4.59%
14,COc1ccc(Cl)cc1C(=O)NCC1(N(C)C)CCCCC1,inactive: 2.6%
15,COc1cc(C(=O)NCC2(N(C)C)CCCCC2)c([N+](=O)[O-])cc1OC,inactive: 0.929%
16,CN(C)C1(CNC(=O)c2ccc(Br)cc2)CCCCC1,inactive: 10.8%

# Reference: PubChem BioAssay AID624172 (National Center for Advancing Translational Sciences (NCATS), 2012)
